Assay results reported in ChEMBL document CHEMBL1127738, “14 alpha,14' beta-[Dithiobis[(2-oxo-2,1-ethanediyl)imino]]bis (7,8-dihydromorphinone) and 14 alpha,14' beta-[dithiobis[(2-oxo-2,1- ethanediyl)imino]]bis[7,8-dihydro-N-(cyclopropylmethyl)normorphinone]: chemistry and opioid binding properties” (J Med Chem, 1994).

Protein sequences, listed by entry. Tags and fused reporters are not part of them.
UniProt P79350, whole entry, looked up: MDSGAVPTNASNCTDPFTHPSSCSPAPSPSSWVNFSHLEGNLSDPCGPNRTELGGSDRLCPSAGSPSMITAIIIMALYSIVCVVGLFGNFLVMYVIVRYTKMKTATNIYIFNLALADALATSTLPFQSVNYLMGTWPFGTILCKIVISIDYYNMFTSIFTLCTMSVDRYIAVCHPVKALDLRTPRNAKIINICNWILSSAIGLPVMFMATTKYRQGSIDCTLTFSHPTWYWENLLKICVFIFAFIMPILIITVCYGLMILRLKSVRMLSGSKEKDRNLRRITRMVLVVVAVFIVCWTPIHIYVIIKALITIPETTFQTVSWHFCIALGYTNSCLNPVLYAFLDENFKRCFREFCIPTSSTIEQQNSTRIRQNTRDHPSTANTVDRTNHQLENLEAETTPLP

Molecular target: Mu-type opioid receptor (Bos taurus) (UniProt P79350)
Experiment: Evaluation for the ability of mu opioid to protect the [3H]DAMGO binding site from alkylation

In the case of CN(C(=O)Cc1ccc(Cl)c(Cl)c1)C1CCCCC1N1CCCC1 (stereo unspecified), the Activity is reported as 24.
